Assay results reported in ChEMBL document CHEMBL3091342, “Preparation, in vitro evaluation and molecular modelling of pyridinium-quinolinium/isoquinolinium non-symmetrical bisquaternary cholinesterase inhibitors” (Bioorg Med Chem Lett, 2013).

Amino acid sequences for entries named in this document (tags omitted). A change or cut given only in a name is not applied to a line headed by its entry.
UniProt P06276, whole entry, looked up: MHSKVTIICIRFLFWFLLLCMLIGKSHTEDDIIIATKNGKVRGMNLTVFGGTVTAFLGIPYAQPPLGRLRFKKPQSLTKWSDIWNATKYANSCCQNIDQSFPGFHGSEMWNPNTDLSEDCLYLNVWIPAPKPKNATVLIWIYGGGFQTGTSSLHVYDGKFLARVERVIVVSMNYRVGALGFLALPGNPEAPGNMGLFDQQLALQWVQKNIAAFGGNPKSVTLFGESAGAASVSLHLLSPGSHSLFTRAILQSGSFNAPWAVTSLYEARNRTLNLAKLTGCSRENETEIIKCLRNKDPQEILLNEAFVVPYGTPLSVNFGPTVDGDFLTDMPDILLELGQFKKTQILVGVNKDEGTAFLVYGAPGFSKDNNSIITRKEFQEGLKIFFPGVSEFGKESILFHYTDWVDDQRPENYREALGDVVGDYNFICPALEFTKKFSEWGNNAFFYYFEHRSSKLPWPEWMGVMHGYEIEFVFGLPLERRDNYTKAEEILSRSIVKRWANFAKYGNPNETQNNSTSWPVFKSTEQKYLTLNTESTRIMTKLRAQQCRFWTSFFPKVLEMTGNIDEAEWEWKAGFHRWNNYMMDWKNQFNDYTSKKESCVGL
UniProt P22303: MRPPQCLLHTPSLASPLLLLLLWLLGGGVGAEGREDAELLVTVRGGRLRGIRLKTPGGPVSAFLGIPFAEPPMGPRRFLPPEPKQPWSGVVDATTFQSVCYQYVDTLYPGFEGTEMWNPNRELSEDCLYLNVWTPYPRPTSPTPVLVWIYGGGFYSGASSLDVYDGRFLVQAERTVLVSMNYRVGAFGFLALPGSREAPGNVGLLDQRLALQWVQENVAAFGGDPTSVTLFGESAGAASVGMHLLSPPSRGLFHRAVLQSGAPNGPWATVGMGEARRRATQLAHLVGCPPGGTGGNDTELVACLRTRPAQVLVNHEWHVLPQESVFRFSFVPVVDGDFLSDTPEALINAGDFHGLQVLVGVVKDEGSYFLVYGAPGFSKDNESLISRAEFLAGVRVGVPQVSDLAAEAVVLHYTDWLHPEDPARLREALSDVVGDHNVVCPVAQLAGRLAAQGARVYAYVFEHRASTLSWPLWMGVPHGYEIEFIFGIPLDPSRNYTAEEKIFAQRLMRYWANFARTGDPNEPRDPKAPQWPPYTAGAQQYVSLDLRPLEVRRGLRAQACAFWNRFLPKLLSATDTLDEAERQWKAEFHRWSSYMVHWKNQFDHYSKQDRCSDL

Molecular target: Cholinesterases; ACHE & BCHE (Homo sapiens) (UniProt P06276+P22303)
Test: Selectivity index, ratio of IC50 for human plasmatic BChE to IC50 for human recombinant AChE

c1cc[n+](CCCCCCCCCC[n+]2cccc3ccccc32)cc1
Ratio IC50: 630

C=CC[N+](C)(C)c1ccc(CCC(=O)CCc2ccc([N+](C)(C)CC=C)cc2)cc1
Ratio IC50: 11800
